{"source": "PubChem BioAssay AID1463", "about": "(National Center for Advancing Translational Sciences (NCATS), 2008)", "note": "The entries are a selection whose mix differs from that of the whole data set. Records with an inconclusive call do not appear. Activity calls are given as the source filed them. Calls follow the shape of the dose curve; as a rule, active = well fitted curve in the direction sought with a large enough effect; inconclusive = small, poorly fitted or top-dose-only effect; inactive = flat fitted curve, though single readings scatter. % is scaled to controls: 0 for no effect and ±100 for the full control effect."}
{"test": "Counterscreen qHTS for Inhibitors of Tau Fibril Formation, Fluorescence Polarization; also: nearly all actives have a fitted effect of over 55% in size", "conditions": "tau K18 P301L (four-repeat tau fragment) Alexa594 fluorescence, heparin fibrillization; at 57.7 µM (top of the series)"}
{"smiles": "CCOC(=O)c1ccc(NP(C)(=O)Oc2ccccc2)cc1", "note": "(centres undefined)", "activity change, negative = decrease": "inactive: -4.49%"}
{"smiles": "Cc1ccc(NP(C)(=O)Oc2ccccc2)c(C)c1", "note": "(centres undefined)", "activity change, negative = decrease": "inactive: -3.14%"}
{"smiles": "COc1ccccc1OP(C)(=O)Nc1ccc(C)cc1", "note": "(centres undefined)", "activity change, negative = decrease": "inactive: 2.08%"}
{"smiles": "COc1ccc(OP(C)(=O)Nc2cccc(F)c2)cc1", "note": "(centres undefined)", "activity change, negative = decrease": "inactive: -5.47%"}
{"smiles": "COc1ccccc1OP(C)(=O)Nc1cc(Cl)ccc1C", "note": "(centres undefined)", "activity change, negative = decrease": "inactive: -11.4%"}
{"smiles": "Cc1cc(C)cc(OP(C)(N)=O)c1", "note": "(centres undefined)", "activity change, negative = decrease": "inactive: -2.02%"}
{"smiles": "Cc1cccc(C)c1OP(C)(N)=O", "note": "(centres undefined)", "activity change, negative = decrease": "inactive: -2.19%"}
{"smiles": "CC(C)(C)c1ccc(OP(C)(=O)Nc2ccc(SC(F)(F)F)cc2)cc1", "note": "(centres undefined)", "activity change, negative = decrease": "inactive: -15.5%"}
{"smiles": "O=[N+]([O-])c1ccc2c(c1)C=Nc1ccccc1O2", "activity change, negative = decrease": "inactive: -27.6%"}
{"smiles": "CCN(CC)CCCOC(=O)C(O)(c1ccccc1)c1ccccc1", "activity change, negative = decrease": "inactive: 1.05%"}
{"smiles": "CCOP(C)(=S)SCC(=O)NC(C)C(=O)O", "note": "(centres undefined)", "activity change, negative = decrease": "inactive: -0.745%"}
{"smiles": "CCOC(=O)c1ccc(NP(C)(=O)Oc2ccc(OC)cc2)cc1", "note": "(centres undefined)", "activity change, negative = decrease": "inactive: -9.05%"}
{"smiles": "CP(=O)(Nc1ccccn1)Oc1ccc(Cl)cc1", "note": "(centres undefined)", "activity change, negative = decrease": "inactive: 0.512%"}
{"smiles": "CP(=O)(Oc1ccccc1)OC(c1ccccc1)C(F)(F)F", "note": "(centres undefined)", "activity change, negative = decrease": "inactive: -3.2%"}
{"smiles": "Cc1cccc(C)c1OP(C)(=O)Nc1ccc(SC(F)(F)F)cc1", "note": "(centres undefined)", "activity change, negative = decrease": "inactive: -19.7%"}
{"smiles": "Cc1cc(C)cc(OP(C)(=O)Nc2ccc(SC(F)(F)F)cc2)c1", "note": "(centres undefined)", "activity change, negative = decrease": "inactive: -18.5%"}
{"smiles": "CP(=O)(NC(=O)Nc1ccccc1)Oc1ccccc1", "note": "(centres undefined)", "activity change, negative = decrease": "inactive: -4.91%"}
{"smiles": "CP(=S)(Nn1cnnc1)Oc1ccccc1", "note": "(centres undefined)", "activity change, negative = decrease": "inactive: -0.0504%"}
{"smiles": "COc1ccccc1OP(C)(=O)Nc1ccccc1", "note": "(centres undefined)", "activity change, negative = decrease": "inactive: -3.15%"}
{"smiles": "CP(=O)(Nc1ccccc1Br)Oc1ccccc1", "note": "(centres undefined)", "activity change, negative = decrease": "inactive: -4.72%"}
{"smiles": "COc1ccccc1OP(C)(=O)Nc1c(C)cccc1C", "note": "(centres undefined)", "activity change, negative = decrease": "inactive: -2%"}
{"smiles": "CN1CCCCC1COC(=O)C1(O)c2ccccc2CCc2ccccc21", "note": "(centres undefined)", "activity change, negative = decrease": "inactive: -0.445%"}
{"smiles": "CP(=O)(Nc1ccc(SC(F)(F)F)cc1)Oc1ccccc1", "note": "(centres undefined)", "activity change, negative = decrease": "inactive: -14%"}
{"smiles": "CCCOc1ccc(NP(C)(=O)Oc2ccc(Cl)cc2)cc1", "note": "(centres undefined)", "activity change, negative = decrease": "inactive: -7.03%"}
{"smiles": "O=[N+]([O-])c1cc([N+](=O)[O-])c(Nc2nnnn2CCO)c([N+](=O)[O-])c1", "activity change, negative = decrease": "inactive: -23.7%"}
{"smiles": "Cc1nc2ccc3ccccc3c2s1.O=[N+]([O-])c1cc([N+](=O)[O-])c(O)c([N+](=O)[O-])c1", "activity change, negative = decrease": "inactive: -10.1%"}
{"smiles": "O=[N+]([O-])c1cc([N+](=O)[O-])c(-n2nnc3ccccc32)c([N+](=O)[O-])c1", "activity change, negative = decrease": "inactive: 4.96%"}
{"smiles": "CP(=O)(Nc1cccc(Br)c1)Oc1ccccc1", "note": "(centres undefined)", "activity change, negative = decrease": "inactive: -10.3%"}
{"smiles": "Cc1cc(C)cc(OP(C)(=O)Nc2ccccn2)c1", "note": "(centres undefined)", "activity change, negative = decrease": "inactive: -2.82%"}
{"smiles": "Cc1ccc(C)c(NP(C)(=O)Oc2ccccc2)c1", "note": "(centres undefined)", "activity change, negative = decrease": "inactive: 7.3%"}
{"smiles": "COc1ccccc1OP(C)(=O)Nc1cccc(Br)c1", "note": "(centres undefined)", "activity change, negative = decrease": "inactive: 3.39%"}
{"smiles": "Cc1cc(C)cc(OP(C)(=O)Nc2ccc(C)cc2C)c1", "note": "(centres undefined)", "activity change, negative = decrease": "inactive: -10.8%"}
{"smiles": "CCOC(=O)c1ccc(NP(C)(=O)Oc2cc(C)cc(C)c2)cc1", "note": "(centres undefined)", "activity change, negative = decrease": "inactive: -14.9%"}
{"smiles": "O=[N+]([O-])OCC(CO[N+](=O)[O-])(CO[N+](=O)[O-])CO[N+](=O)[O-]", "activity change, negative = decrease": "inactive: -3.71%"}
{"smiles": "CC1=NCCc2c1[nH]c1ccccc21.O=[N+]([O-])c1cc([N+](=O)[O-])c(O)c([N+](=O)[O-])c1", "activity change, negative = decrease": "inactive: -16.7%"}
{"smiles": "CCN(CC)CCCOC(=O)C(O)(c1ccccc1)C1CCCCC1", "note": "(centres undefined)", "activity change, negative = decrease": "inactive: 1.65%"}
{"smiles": "CCCCCOc1ccc(NP(C)(=O)Oc2ccc(Cl)cc2Cl)cc1", "note": "(centres undefined)", "activity change, negative = decrease": "inactive: -13.3%"}
{"smiles": "CP(=O)(Nc1ccccc1)Oc1ccc(F)cc1", "note": "(centres undefined)", "activity change, negative = decrease": "inactive: 7.17%"}
{"smiles": "COc1ccc(OP(C)(=O)Nc2ccc(SC(F)(F)F)cc2)cc1", "note": "(centres undefined)", "activity change, negative = decrease": "inactive: -8.2%"}
{"smiles": "CCOC(=O)c1ccc(NP(C)(=O)Oc2ccc(F)cc2)cc1", "note": "(centres undefined)", "activity change, negative = decrease": "inactive: 6.98%"}
{"smiles": "O=C(OCCN1CCN(CCOCc2ccccc2)CC1)C(O)(c1ccccc1)c1ccccc1", "activity change, negative = decrease": "inactive: 8.51%"}
{"smiles": "CC(C)c1ccc(OP(C)(=O)Nc2ccc(SC(F)(F)F)cc2)cc1", "note": "(centres undefined)", "activity change, negative = decrease": "inactive: -13.5%"}
{"smiles": "CP(=O)(Nc1ccccc1F)Oc1ccccc1", "note": "(centres undefined)", "activity change, negative = decrease": "inactive: -1.24%"}
{"smiles": "CP(=O)(Nc1ccc2c(c1)OCCO2)Oc1ccccc1", "note": "(centres undefined)", "activity change, negative = decrease": "inactive: -2.09%"}
{"smiles": "CCN(CCCl)Cc1ccccc1C", "activity change, negative = decrease": "inactive: -5.1%"}
{"smiles": "Cc1ccccc1NP(C)(=O)Nc1ccccc1C", "activity change, negative = decrease": "inactive: 1.4%"}
{"smiles": "CP(=O)(Nc1ccc(SC(F)(F)F)cc1)Oc1ccc(F)cc1", "note": "(centres undefined)", "activity change, negative = decrease": "inactive: -4.94%"}
{"smiles": "CCOP(C)(=S)SCC(=O)NC(C)(CC)C(=O)O", "note": "(centres undefined)", "activity change, negative = decrease": "inactive: -9.86%"}
{"smiles": "Cc1cc(-c2cccc3ccccc23)c(C)cn1.O=[N+]([O-])c1cc([N+](=O)[O-])c(O)c([N+](=O)[O-])c1", "activity change, negative = decrease": "inactive: -10.7%"}
{"smiles": "O=[N+]([O-])c1ccc(OP2(=O)COCCO2)cc1", "note": "(centres undefined)", "activity change, negative = decrease": "inactive: -11.9%"}
{"smiles": "COc1ccc(OP(C)(=O)Nc2cccc(Br)c2)cc1", "note": "(centres undefined)", "activity change, negative = decrease": "inactive: -4.26%"}
{"smiles": "COc1ccc(NP(C)(=O)Oc2ccccc2OC)cc1", "note": "(centres undefined)", "activity change, negative = decrease": "inactive: -5.29%"}
{"smiles": "CN(C)CCOC(=O)C(O)(c1ccccc1)C1CCCCC1", "note": "(centres undefined)", "activity change, negative = decrease": "inactive: -2.69%"}
{"smiles": "CP(=O)(OC12CC3CC(CC(C3)C1)C2)OC12CC3CC(CC(C3)C1)C2", "activity change, negative = decrease": "inactive: -9.32%"}
{"smiles": "CCOC(=O)c1ccc(NP(C)(=O)Oc2ccc(Cl)cc2)cc1", "note": "(centres undefined)", "activity change, negative = decrease": "inactive: -16.1%"}
{"smiles": "CP(=O)(Nc1ccc(Cl)cc1)Oc1ccc(F)cc1", "note": "(centres undefined)", "activity change, negative = decrease": "inactive: -4.93%"}
{"smiles": "CC(C)(C)c1ccc(OP(C)(=O)O)cc1", "activity change, negative = decrease": "inactive: -3.47%"}
{"smiles": "COc1ccccc1OP(C)(=O)Nc1ccccc1Br", "note": "(centres undefined)", "activity change, negative = decrease": "inactive: -9.32%"}
{"smiles": "CN(C)C(=O)c1c([N+](=O)[O-])cc([N+](=O)[O-])cc1[N+](=O)[O-]", "activity change, negative = decrease": "inactive: -16.9%"}
{"smiles": "COc1ccc(OP(C)(=O)Nc2ccc(Br)cc2)cc1", "note": "(centres undefined)", "activity change, negative = decrease": "inactive: -3.62%"}
{"smiles": "CCN(CC)CC(O)COC(=O)C(O)(c1ccccc1)C1CCCCC1", "note": "(centres undefined)", "activity change, negative = decrease": "inactive: -7.82%"}
{"smiles": "CCc1ccc(OP(C)(=O)Nc2cccnc2)cc1", "note": "(centres undefined)", "activity change, negative = decrease": "inactive: 2.99%"}
{"smiles": "CP(=O)(Oc1ccccc1)N1CCOC1=O", "note": "(centres undefined)", "activity change, negative = decrease": "inactive: -5.23%"}
{"smiles": "OCCSCCO", "activity change, negative = decrease": "inactive: 1.08%"}
{"smiles": "O=C(OCCCN1CCCC1)C(O)(c1ccccc1)C1CCCCC1", "note": "(centres undefined)", "activity change, negative = decrease": "inactive: -4.56%"}
{"smiles": "COc1ccccc1OP(C)(=O)Nc1c(C)n(C)n(-c2ccccc2)c1=O", "note": "(centres undefined)", "activity change, negative = decrease": "inactive: -1.41%"}
{"smiles": "O=[N+]([O-])c1cc([N+](=O)[O-])c(Nc2ccccn2)c([N+](=O)[O-])c1", "activity change, negative = decrease": "inactive: -20.3%"}
{"smiles": "Cc1c(NP(C)(=O)Oc2ccc(C(C)C)cc2)c(=O)n(-c2ccccc2)n1C", "note": "(centres undefined)", "activity change, negative = decrease": "inactive: 0.831%"}
{"smiles": "CCc1ccc(OP(C)(=O)O)cc1", "activity change, negative = decrease": "inactive: 1.89%"}
{"smiles": "COc1ccccc1OP(C)(=O)Nc1ccc(C)cc1C", "note": "(centres undefined)", "activity change, negative = decrease": "inactive: -5.51%"}
{"smiles": "CP(=O)(Nc1ccccn1)Oc1ccccc1", "note": "(centres undefined)", "activity change, negative = decrease": "inactive: 5.16%"}
{"smiles": "CN(C)CCOC(=O)C(O)(c1ccccc1)C1CCCC1", "note": "(centres undefined)", "activity change, negative = decrease": "inactive: -3.32%"}
{"smiles": "COc1ccc(OP(C)(=O)Nc2ccccn2)cc1", "note": "(centres undefined)", "activity change, negative = decrease": "inactive: -9.45%"}
{"smiles": "Cc1nc2ccc3ccccc3c2o1.O=[N+]([O-])c1cc([N+](=O)[O-])c(O)c([N+](=O)[O-])c1", "activity change, negative = decrease": "inactive: -24.6%"}
{"smiles": "CP(=O)(OCCOc1ccccc1)OCCOc1ccccc1", "activity change, negative = decrease": "inactive: 1.54%"}
{"smiles": "CP(=O)(Nc1ccc(Cl)cc1Cl)Oc1ccccc1", "note": "(centres undefined)", "activity change, negative = decrease": "inactive: 2.34%"}
{"smiles": "Cc1cc(C)cc(OP(C)(=O)Nc2cccc(C(F)(F)F)c2)c1", "note": "(centres undefined)", "activity change, negative = decrease": "inactive: -19.4%"}
{"smiles": "COc1ccc(OP(C)(=O)Nc2ccccc2Br)cc1", "note": "(centres undefined)", "activity change, negative = decrease": "inactive: -2.33%"}
{"smiles": "COc1ccccc1OP(C)(=O)Nc1ccc(C)c(C)c1", "note": "(centres undefined)", "activity change, negative = decrease": "inactive: -0.909%"}
